Source: US20060223811A1, “Triglycerine depressant composition” (priority 2000, published 2006)

Tested on: blood triglyceride levels
Assay: Assay of blood triglyceride levels in dogs after 11 days of oral capsule administration (GK-GPO-POD method)
Conditions: Table 9, serum, relative ratio against averaged pre-dosing level (100), oral capsule once daily, pravastatin 2 mg/kg, pantethine 300 mg/kg, mean of 5 dogs

Question: For `CC(C)(CO)[C@@H](O)C(=O)NCCC(=O)NCCSSCCNC(=O)CCNC(=O)[C@H](O)C(C)(C)CO` [Pantethine alone, Pantethine], which “Blood Triglyceride Levels after administration, 4 days” value (4 days) is on record?
Answer: Its value is 104.4.

Question: And the “Blood Triglyceride Levels after administration, 8 days” value (8 days)?
Answer: Its value is 103.9.

Question: And the “Blood Triglyceride Levels after administration, 12 days” value (12 days)?
Answer: Its value is 96.6.
